According to PMC9230784, “Development of a Novel Class of Pyridazinone Derivatives as Selective MAO-B Inhibitors” (Molecules, 2022):

Conditions: PAMPA-BBB

SMILES: NCCc1ccc(O)c(O)c1 [Dopamine, reference compound]
- Experimental Pe (×10^−6 cm/s): 0.21 ± 0.01 ×10^−6 cm/s
